By UniProt entry, the sequences of proteins in these tests, tags left out. Residues count along the entry.
UniProt Q07343, 1-564 isoform Q07343-2: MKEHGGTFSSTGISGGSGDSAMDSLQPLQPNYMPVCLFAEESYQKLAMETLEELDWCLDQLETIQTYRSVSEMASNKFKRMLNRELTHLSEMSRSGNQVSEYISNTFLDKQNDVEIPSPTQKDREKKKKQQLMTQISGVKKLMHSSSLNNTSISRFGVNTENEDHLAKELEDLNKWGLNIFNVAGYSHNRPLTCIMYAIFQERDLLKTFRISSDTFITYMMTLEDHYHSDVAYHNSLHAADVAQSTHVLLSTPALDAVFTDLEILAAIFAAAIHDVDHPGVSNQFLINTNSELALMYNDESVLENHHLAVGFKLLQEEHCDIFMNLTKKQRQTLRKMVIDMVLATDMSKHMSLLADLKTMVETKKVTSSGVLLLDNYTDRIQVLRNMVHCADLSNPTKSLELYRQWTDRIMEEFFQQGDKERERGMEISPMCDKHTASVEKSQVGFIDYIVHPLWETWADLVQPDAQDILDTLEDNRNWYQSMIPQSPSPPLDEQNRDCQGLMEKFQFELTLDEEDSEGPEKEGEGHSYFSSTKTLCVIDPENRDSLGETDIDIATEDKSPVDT

What follows are compounds tested against recombinant Human Phosphodiesterase B2 (PDE4B2) (Homo sapiens, UniProt Q07343) (assay: Human Phosphodiesterase B2 Radiometric Assay). Details: 0.1 μg/mL recombinant PDE4B2; preincubated at 30 C for 30 min; [3H]cyclic AMP 8 nM, stopped after 20 min; yttrium silicate SPA beads; read-out: PDE4B2 pIC50 (converted).
Format: biochemical
Protocol: Human Phosphodiesterase B2 Radiometric Assay
The assay uses recombinant Human Phosphodiesterase B2 (PDE4B2) produced in house (PrAZL0163), stored at −20° C. This assay is based on the observation that 5′AMP, the product of the reaction catalysed by PDE4, binds preferentially to yttrium silicate SPA beads (Amersham Biosciences, UK) compared to the substrate, cAMP. Compounds at the appropriate concentration were preincubated at 30 C for 30 min with an assay buffer containing 50 mM HEPES (pH 7.5), 8.3 mM MgCl2, 1.7 mM EGTA, 0.01% (w/v) Brij®35 and 0.1 μg/mL recombinant PDE4B2. The reaction was started by the addition of [3H]cyclic AMP to give a final concentration of 8 nM, and was stopped 20 min after the addition of the substrate by the addition of yttrium silicate SPA beads containing 18 mM Zn SO4. Bound […] was measured using a Topcount NXT (Packard Bioscience, UK). pIC50 values (presented in Table 2) were determined using Xlfit3 curve fitting, using model 205.
An IC50 of 0.0158 nM was found for Cc1cc(C(=O)N[C@H]2CC[C@@H](NC(=O)c3cc(F)cnc3Oc3cccc(-c4ccc(O)cc4CN4CCOCC4)c3)CC2)nn1C [Example 2, N-((1s,4s)-4-(1,5-dimethyl-1H-pyrazole-3-carboxamido)cyclohexyl)-5-fluoro-2-(4′-hydroxy-2′-(morpholinomethyl)biphenyl-3-yloxy)nicotinamide] in this work. An IC50 of 0.126 nM was found for O=C(N[C@H]1CC[C@@H](NC(=O)c2ncccc2O)CC1)c1cc(F)cnc1Oc1cccc(-c2ccc(O)cc2CN2CCOCC2)c1 [Example 35, N-((1s,4s)-4-(5-fluoro-2-(4′-hydroxy-2′-(morpholinomethyl)biphenyl-3-yloxy)nicotinamido)cyclohexyl)-3-hydroxypicolinamide] in this work. An IC50 of 0.398 nM was found for Cc1nc(C(=O)N[C@H]2CC[C@@H](NC(=O)c3cc(F)cnc3Oc3cccc(-c4ccc(CN(C)C)cc4)c3)CC2)cs1 [Example 53, N-((1s,4s)-4-(2-(4′-((dimethylamino)methyl)biphenyl-3-yloxy)-5-fluoronicotinamido)cyclohexyl)-2-methylthiazole-4-carboxamide] in this work. An IC50 of 0.02 nM was found for Cc1cc(C(=O)N[C@H]2CC[C@@H](NC(=O)c3cc(F)cnc3Oc3cccc(-c4ccc(O)c(CN5C[C@@H](C)N[C@@H](C)C5)c4)c3)CC2)nn1C [Example 61, N-((1s,4s)-4-(1,5-dimethyl-1H-pyrazole-3-carboxamido)cyclohexyl)-2-(3′-(((3S,5R)-3,5-dimethylpiperazin-1-yl)methyl)-4′-hydroxybiphenyl-3-yloxy)-5-fluoronicotinamide] in this work. An IC50 of 0.0316 nM was found for Cc1cc(C(=O)N[C@H]2CC[C@@H](NC(=O)c3cc(F)cnc3Oc3cccc(-c4cc(O)cc(CN5C[C@@H](C)N[C@@H](C)C5)c4)c3)CC2)nn1C [Example 66, N-((1s,4s)-4-(1,5-dimethyl-1H-pyrazole-3-carboxamido)cyclohexyl)-2-(3′-(((3R,5S)-3,5-dimethylpiperazin-1-yl)methyl)-5′-hydroxybiphenyl-3-yloxy)-5-fluoronicotinamide] in this work. An IC50 of 0.02 nM was found for Cc1ccc(O)c(C(=O)N[C@H]2CC[C@@H](NC(=O)c3cc(F)cnc3Oc3cccc(-c4ccc(CN5C[C@@H](C)N[C@@H](C)C5)cc4CN4CCOCC4)c3)CC2)c1 [Example 145, 2-(4′-(((3S,5R)-3,5-dimethylpiperazin-1-yl)methyl)-2′-(morpholinomethyl)biphenyl-3-yloxy)-5-fluoro-N-((1s,4s)-4-(2-hydroxy-5-methylbenzamido)cyclohexyl)nicotinamide] in this work.
